The chains behind the UniProt entries cited, without tags or fusion partners. Where a name states a change or a piece, a line headed by the entry shows the natural chain unless it says otherwise.
UniProt Q00959, whole entry, looked up: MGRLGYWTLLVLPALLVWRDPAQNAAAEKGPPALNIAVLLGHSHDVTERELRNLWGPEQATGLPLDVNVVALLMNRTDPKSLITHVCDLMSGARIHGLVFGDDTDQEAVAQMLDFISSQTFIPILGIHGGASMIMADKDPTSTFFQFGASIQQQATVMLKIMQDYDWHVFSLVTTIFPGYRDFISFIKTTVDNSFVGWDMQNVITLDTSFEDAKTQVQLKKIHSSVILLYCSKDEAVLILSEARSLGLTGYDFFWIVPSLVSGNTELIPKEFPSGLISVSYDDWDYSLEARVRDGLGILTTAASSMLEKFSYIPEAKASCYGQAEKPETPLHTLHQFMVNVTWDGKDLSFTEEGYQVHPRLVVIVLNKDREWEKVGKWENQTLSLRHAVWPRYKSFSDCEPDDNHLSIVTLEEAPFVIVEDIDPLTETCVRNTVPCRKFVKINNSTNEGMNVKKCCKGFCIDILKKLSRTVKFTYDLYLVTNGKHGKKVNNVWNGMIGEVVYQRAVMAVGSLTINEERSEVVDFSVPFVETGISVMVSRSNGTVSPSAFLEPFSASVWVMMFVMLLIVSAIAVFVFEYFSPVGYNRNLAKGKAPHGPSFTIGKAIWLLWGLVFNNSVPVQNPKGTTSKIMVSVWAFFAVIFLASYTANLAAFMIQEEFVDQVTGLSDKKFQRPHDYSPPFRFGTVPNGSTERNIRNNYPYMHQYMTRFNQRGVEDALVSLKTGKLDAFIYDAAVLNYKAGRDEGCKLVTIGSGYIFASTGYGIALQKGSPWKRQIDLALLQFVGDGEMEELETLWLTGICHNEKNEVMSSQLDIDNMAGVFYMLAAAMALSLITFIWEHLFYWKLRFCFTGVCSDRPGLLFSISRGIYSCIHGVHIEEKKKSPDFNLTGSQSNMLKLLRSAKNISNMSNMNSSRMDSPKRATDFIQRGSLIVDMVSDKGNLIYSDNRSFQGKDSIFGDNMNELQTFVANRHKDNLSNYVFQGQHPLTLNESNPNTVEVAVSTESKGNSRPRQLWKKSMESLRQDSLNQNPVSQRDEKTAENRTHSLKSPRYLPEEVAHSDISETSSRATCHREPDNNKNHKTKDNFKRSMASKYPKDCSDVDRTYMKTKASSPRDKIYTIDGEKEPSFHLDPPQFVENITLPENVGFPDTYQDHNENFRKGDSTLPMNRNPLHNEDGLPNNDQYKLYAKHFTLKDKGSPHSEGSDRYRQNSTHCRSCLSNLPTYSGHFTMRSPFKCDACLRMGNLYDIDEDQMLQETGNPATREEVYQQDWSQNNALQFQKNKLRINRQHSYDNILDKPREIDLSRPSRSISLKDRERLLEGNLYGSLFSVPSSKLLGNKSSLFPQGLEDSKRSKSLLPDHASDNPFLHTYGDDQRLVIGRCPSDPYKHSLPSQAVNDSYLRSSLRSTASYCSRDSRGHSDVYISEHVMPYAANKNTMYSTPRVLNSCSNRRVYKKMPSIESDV
UniProt Q00960, whole entry, looked up: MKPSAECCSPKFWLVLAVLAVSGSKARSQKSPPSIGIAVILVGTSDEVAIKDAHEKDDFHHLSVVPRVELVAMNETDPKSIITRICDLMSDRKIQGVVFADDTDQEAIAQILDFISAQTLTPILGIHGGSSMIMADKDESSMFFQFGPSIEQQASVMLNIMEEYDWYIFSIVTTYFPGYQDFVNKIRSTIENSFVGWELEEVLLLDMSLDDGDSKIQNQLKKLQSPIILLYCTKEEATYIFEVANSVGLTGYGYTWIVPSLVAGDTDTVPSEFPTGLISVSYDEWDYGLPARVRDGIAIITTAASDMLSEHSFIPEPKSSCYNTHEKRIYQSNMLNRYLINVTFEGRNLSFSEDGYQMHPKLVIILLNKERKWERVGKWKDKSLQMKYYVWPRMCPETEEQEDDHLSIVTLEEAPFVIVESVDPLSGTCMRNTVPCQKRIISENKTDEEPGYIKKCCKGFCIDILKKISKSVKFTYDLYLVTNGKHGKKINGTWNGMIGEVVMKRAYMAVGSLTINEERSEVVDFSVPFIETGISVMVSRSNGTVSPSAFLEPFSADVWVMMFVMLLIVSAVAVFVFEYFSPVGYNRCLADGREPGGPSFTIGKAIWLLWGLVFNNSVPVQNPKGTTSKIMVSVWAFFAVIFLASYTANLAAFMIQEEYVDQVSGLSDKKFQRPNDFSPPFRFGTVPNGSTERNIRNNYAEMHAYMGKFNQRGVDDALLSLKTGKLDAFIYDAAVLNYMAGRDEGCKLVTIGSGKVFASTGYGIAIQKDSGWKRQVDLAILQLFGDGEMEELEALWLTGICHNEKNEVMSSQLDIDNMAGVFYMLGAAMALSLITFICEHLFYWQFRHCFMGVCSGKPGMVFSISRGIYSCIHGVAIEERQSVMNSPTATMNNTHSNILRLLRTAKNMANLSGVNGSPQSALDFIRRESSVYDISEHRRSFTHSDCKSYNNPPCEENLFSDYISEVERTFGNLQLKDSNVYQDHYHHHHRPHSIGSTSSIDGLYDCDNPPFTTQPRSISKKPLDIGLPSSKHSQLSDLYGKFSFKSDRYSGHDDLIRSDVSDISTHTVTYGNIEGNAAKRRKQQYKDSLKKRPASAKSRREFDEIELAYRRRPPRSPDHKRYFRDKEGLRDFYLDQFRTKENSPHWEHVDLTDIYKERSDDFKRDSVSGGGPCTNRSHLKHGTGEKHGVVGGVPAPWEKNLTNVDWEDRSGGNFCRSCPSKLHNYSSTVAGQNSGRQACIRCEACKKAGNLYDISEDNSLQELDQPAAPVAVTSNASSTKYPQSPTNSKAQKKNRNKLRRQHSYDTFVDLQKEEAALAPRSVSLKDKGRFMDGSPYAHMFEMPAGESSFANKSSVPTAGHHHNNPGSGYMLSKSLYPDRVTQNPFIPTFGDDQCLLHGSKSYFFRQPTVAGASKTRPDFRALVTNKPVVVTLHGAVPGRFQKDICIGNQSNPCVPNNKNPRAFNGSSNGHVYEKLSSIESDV
UniProt P39086: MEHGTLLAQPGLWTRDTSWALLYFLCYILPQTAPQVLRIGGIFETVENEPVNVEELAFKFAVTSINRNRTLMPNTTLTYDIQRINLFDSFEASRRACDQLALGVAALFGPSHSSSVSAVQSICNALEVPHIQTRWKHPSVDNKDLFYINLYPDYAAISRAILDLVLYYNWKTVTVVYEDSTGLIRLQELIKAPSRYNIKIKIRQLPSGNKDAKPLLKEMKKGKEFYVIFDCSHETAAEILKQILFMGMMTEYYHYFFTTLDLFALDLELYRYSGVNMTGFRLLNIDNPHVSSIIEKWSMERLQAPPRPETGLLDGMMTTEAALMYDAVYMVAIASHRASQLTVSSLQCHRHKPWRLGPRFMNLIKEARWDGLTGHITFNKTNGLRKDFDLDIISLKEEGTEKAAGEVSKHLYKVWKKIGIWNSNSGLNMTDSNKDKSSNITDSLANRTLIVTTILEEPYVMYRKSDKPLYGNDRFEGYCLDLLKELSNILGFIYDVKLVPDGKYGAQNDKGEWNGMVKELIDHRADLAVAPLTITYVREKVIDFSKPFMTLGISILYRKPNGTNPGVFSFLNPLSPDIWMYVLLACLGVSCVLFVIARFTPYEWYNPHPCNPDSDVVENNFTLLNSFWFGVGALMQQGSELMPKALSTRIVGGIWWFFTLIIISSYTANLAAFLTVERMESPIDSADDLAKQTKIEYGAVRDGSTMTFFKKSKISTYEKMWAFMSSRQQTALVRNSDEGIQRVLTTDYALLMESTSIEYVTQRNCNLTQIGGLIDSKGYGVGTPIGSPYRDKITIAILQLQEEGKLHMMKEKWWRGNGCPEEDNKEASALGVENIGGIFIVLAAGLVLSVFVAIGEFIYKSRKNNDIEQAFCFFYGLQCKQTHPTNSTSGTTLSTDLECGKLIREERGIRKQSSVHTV

In ChEMBL document CHEMBL1949555, “Piperazine-2,3-dicarboxylic acid derivatives as dual antagonists of NMDA and GluK1-containing kainate receptors” (J Med Chem, 2012):

Assays:
Format in all cases: functional, cell-based
[1] = target: Glutamate NMDA receptor; Grin1/Grin2a (Rattus norvegicus) (UniProt P35439+Q00959); test: Antagonist activity at rat recombinant GluN1/GluN2A receptor expressed in Xenopus laevis oocytes assessed as inhibition of glutamate-induced response at 100 uM by two-electrode voltage-clamp electrophysiology assay; conditions: Oocyte
Method in brief: (§1)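 Rat GluN1a co-expressed with GluN2A, 2B, 2C or 2D in Xenopus oocytes. Two-electrode voltage clamp at −60 mV in buffer of 116 mM NaCl, 2 mM KCl, 0.3 mM BaCl2, 5 mM HEPES, pH 7.4. Response is the steady plateau evoked by bath-applied 10 μM L-glutamate plus 10 μM glycine. Read-out is percent antagonism by 100 μM test compound.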

[2] = target: Glutamate NMDA receptor; Grin1/Grin2b (Rattus norvegicus) (UniProt P35439+Q00960); test: Antagonist activity rat recombinant GluN1/GluN2B receptor expressed in Xenopus laevis oocytes assessed as inhibition of glutamate-induced response at 100 uM by two-electrode voltage-clamp electrophysiology assay; conditions: Oocyte; method in brief: as §1
[3] = target: Glutamate receptor ionotropic, kainate 1 (Homo sapiens, UniProt P39086); test: Antagonist activity at human recombinant GluK1 receptor expressed in human HEK293 cells assessed as inhibition of glutamate-stimulated calcium influx by fluorescence assay
Method in brief: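 HEK293 lines stably expressing homomeric human GluK1(Q) or GluK2(Q), passaged no more than 20 times. Ca2+ influx is read as fluorescence, with concanavalin A present. Test compound is added in a first run, then L-glutamate plus antagonist in a second run (final glutamate 30 μM for GluK1, 10 μM for GluK2). IC50 values are converted to KB. Means ± s.e.m.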

| SMILES | inhibition [1] [%] | inhibition [2] [%] | Kb [3] [µM] |
| --- | --- | --- | --- |
| O=C(O)[C@H]1NCCN(C(=O)c2ccc3cc(-c4ccccc4)ccc3c2)[C@H]1C(=O)O (relative stereo) | 30.3 | 37.1 | – |
| O=C(O)[C@H]1NCCN(C(=O)c2ccc(C#Cc3ccccc3)cc2)[C@H]1C(=O)O (relative stereo) | – | – | 13.4 |
